# From ChEMBL document CHEMBL1128551, “Decapeptide agonists of human C5a: the relationship between conformation and neutrophil response” (J Med Chem, 1995)
# Molecular target: T1, C5a anaphylatoxin chemotactic receptor 1 (Homo sapiens, UniProt P21730)
# T1 sequence (P21730 whole entry): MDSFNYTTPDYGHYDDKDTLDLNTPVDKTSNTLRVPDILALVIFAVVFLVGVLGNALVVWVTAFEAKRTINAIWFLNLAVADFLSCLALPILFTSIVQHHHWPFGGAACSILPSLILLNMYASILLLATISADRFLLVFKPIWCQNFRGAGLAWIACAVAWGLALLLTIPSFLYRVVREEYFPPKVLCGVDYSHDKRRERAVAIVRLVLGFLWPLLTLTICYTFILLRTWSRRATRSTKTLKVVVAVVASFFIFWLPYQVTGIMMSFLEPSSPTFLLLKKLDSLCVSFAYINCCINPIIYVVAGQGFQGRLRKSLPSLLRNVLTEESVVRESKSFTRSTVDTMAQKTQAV
# Assay: Release of beta-glucuronidase from human polymorphonuclear leukocytes(PMN)
# Assay type: functional
# In short: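 Human PMNs pretreated with cytochalasin B (5 μg/mL, 10 min, 37 °C). 10^6 cells incubated with stimulant 60 min at 37 °C, then centrifuged. Supernatant reacted with 0.01 M p-nitrophenyl β-D-glucuronide in 0.1 M sodium acetate pH 4 for 18 h, in triplicate. Stopped with 0.4 M glycine pH 10. EC50 from dose-response.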
smiles,measurement,value
CSCC[C@H](NC(=O)[C@H](CC(=O)O)NC(=O)[C@H](CCCCN)NC(=O)[C@H](Cc1ccccc1)NC(=O)[C@H](CO)NC(=O)[C@@H](N)Cc1ccc(O)cc1)C(=O)N1CCC[C@H]1C(=O)N[C@@H](C)C(=O)N[C@H](C)C(=O)N[C@@H](CCCN=C(N)N)C(=O)O,EC50,> 1000 µM
